Laboratory results taken from patent publication US11759509B2, “WT1 antigen peptide conjugate vaccine” (Sumitomo Pharma Co., Ltd., priority 2013, dated 2023).

The chains behind the UniProt entries cited, without tags or fusion partners. Where a name states a change or a piece, a line headed by the entry shows the natural chain unless it says otherwise.
UniProt Q9NZ08: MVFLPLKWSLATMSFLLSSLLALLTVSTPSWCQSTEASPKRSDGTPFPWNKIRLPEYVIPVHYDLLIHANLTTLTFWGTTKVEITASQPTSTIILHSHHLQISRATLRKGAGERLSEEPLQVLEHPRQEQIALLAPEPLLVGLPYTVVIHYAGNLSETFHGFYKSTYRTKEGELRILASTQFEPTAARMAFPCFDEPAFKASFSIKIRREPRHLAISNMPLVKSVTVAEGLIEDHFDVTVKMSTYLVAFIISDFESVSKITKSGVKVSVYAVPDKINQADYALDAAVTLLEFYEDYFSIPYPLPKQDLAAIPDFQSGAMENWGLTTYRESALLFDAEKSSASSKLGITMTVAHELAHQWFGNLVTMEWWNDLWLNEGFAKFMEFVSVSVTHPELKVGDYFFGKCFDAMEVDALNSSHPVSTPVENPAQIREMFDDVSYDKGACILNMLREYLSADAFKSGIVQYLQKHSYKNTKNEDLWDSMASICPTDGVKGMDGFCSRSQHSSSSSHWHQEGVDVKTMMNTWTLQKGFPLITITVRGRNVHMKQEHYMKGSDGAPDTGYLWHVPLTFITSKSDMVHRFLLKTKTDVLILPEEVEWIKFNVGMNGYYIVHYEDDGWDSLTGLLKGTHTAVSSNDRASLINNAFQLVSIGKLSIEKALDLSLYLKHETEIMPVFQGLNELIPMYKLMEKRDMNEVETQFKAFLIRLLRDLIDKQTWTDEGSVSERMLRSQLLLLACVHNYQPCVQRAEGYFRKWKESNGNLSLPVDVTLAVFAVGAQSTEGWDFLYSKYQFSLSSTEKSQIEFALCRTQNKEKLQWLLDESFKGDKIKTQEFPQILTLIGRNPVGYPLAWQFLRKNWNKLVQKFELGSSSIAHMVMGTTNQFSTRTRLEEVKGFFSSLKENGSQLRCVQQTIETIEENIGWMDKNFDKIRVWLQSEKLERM

Biological target: ERAP1 (Homo sapiens, UniProt Q9NZ08)
Assay: Time-course changes of trimming of N-terminal amino acid by ERAP1
Assay type: biochemical
Conditions: room temperature
Description: Time-Course Changes of Trimming of N-Terminal Amino Acid by ERAP1
The peptides of SEQ ID NOs: 13, 16, 18 and 17 synthesized in Examples 2-5 were evaluated for the trimming of the N-terminal amino acid by ERAP1 (PLoS One November 2008, vol. 3, Issue 11, e3658).
30 μl of ERAP1 (2.0 mg/ml) in PBS buffer solution was added to 258 μl of Tris·HCl buffer. DMSO solution (12.0 μl) of 10 mM each peptide was added to the aforementioned ERAP1 solution, and the mixture was blended well and stood at room temperature. 1.0, 2.0, 4.0, 8.0 hr later, 50 μl of a sample was added to 150 μl of MeOH to terminate the reaction, 25 μl was injected into UFLC (analysis conditions shown below), and AUC of the object peptide was determined. Peptide obtained by trimming was chemically synthesized separately, and analyzed under similar conditions free of enzyme. The formation ratio of peptide obtained by trimming was determined based on the obtained AUC. • analysis conditions • pump: UFLC manufactured by Shimadzu • column: Shim-pack XR-ODS 3.0 mmi.d.×75 mm • solution: 0.1% TFA H2O(A)-0.1% TFA CH3CN(B) • oven temperature: 40° C. • flow rate: 1.0 ml/min • detection wavelength: λ=220 nm • gradient: • 1. Concentration of SOLUTION B was raised from 1.0% to 70% from 0.0 min to 5.0 min • 2. Concentration of SOLUTION B was raised from 1.0% to 50% from 0.0 min to 5.0 min • object peptide:
As for the peptides synthesized in Examples 2-5, the amino acid sequences of the peptides obtained by trimming of N-terminal amino acid by ERAP1 are shown in Table 55.

- formation rate (%) of the peptide obtained by trimming, 1 hr later (1 hr later): 25.5%
- formation rate (%) of the peptide obtained by trimming, 2 hr later (2 hr later): 35.2%
- formation rate (%) of the peptide obtained by trimming, 4 hr later (4 hr later): 46.2%
- formation rate (%) of the peptide obtained by trimming, 8 hr later (8 hr later): 47.6%
SMILES: CSCC[C@H](NC(=O)[C@H](CCCNC(=N)N)NC(=O)[C@@H](N)CS)C(=O)N[C@@H](Cc1ccccc1)C(=O)N1CCC[C@H]1C(=O)N[C@@H](CC(N)=O)C(=O)N[C@@H](C)C(=O)N1CCC[C@H]1C(=O)N[C@@H](Cc1ccc(O)cc1)C(=O)N[C@@H](CC(C)C)C(=O)O [Example 2, CRMFPNAPYL]
